## Measured affinities in a library of Ab-91 heavy chain variants

The measurements come from Engelhart et al. 2022 (doi:10.1038/s41597-022-01779-4) through the FLAb antibody collection.

The target is the same throughout: PDVDLGDISGINAS, from the HR2 region of SARS-CoV-2 spike.

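In library AAYL51, one, two or three CDR residues were substituted; doubles and triples were drawn at random. Affinity was read by AlphaSeq, a pooled yeast mating assay with surface-displayed partners. The frequency of each diploid, read from paired DNA barcodes, reflects how well the two displayed proteins bind. Each replicate has its own calibration line, from reference interactions of the BCL2 family. Each pool was mated in three replicate cultures.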

Ab-91 is the parent antibody, in scFv form: VL, then the linker GGGGSGGGGSGGGGS, then VH. The light chain is unchanged in all variants.
VL: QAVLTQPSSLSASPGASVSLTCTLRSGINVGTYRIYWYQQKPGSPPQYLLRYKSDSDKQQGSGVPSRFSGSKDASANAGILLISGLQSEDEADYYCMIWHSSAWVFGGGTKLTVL
VH: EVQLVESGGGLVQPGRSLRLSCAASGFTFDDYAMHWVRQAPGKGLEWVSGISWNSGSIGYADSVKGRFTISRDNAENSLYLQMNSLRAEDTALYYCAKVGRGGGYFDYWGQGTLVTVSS

Positions count from residue 1 of the parent VH; F27N puts N in place of F. Every variant below is changed at Y108 of the VH (sequential numbering). Affinities are written as log10 Kd with Kd in nM; a lower number is a better binder. A mean of the replicates is given; it leaves out those without a signal. A pair that was not seen in that replicate is written "nd"; this usually means weak binding, but a binder can also be missed. Three control strains display no target. For library AAYL51, 21% of the pairings with them gave a signal, with a median of 4.54 and one signal in twenty below 3.26, so weak values seen in few replicates may be background. Also given: how often the same scFv was detected with the empty control strains. In this assay the parent's reference entry averaged 1.86; its copy inside this library read 0.88.

The variant F27N R101D Y108Q showed nd, nd, nd (controls 1 of 9).
The variant S52L G100L Y108F showed 5.83, 4.08, nd (mean 4.95; controls 6 of 9).
The variant G59K Y108P showed nd, 4.08, nd (controls 0 of 9).
The variant R101M G102A Y108R showed nd, 3.98, nd (controls 1 of 9).
The variant V64G G104S Y108R showed nd, nd, nd (controls 0 of 9).
The variant Y60A V99S Y108H showed 3.50, nd, nd (controls 1 of 9).
The variant W53A G103W Y108V showed nd, 4.98, nd (controls 4 of 9).
The variant I58H Y108K showed 1.34, 1.09, 0.76 (mean 1.06; controls 1 of 9).
The variant H35I F106K Y108E showed 6.20, 6.35, nd (mean 6.27; controls 3 of 9).
The variant Y32P G102V Y108Q showed nd, 4.46, 5.77 (mean 5.11; controls 4 of 9).
The variant H35V G56Q Y108N showed nd, nd, nd (controls 1 of 9).
The variant F29S S52A Y108H showed 4.87, 4.28, 4.93 (mean 4.69; controls 5 of 9).
The variant G50Y I58C Y108S showed nd, nd, nd (controls 2 of 9).
The variant S55T Y108K showed 4.21, 4.82, nd (mean 4.52; controls 3 of 9).
The variant Y32H Y105V Y108C showed 2.79, 2.56, 2.56 (mean 2.64; controls 5 of 9).
The variant W53H Y108V showed 1.01, 1.08, 0.34 (mean 0.81; controls 5 of 9).
The variant H35Q I58G Y108V showed nd, nd, nd (controls 0 of 9).
The variant Y105L F106G Y108W showed 4.64, 3.44, 3.82 (mean 3.97; controls 4 of 9).
The variant M34S R101P Y108H showed nd, 3.00, nd (controls 0 of 9).
The variant G56H V64P Y108A showed 3.09, nd, 3.00 (mean 3.05; controls 2 of 9).
The variant I51Y Y108H showed nd, nd, 3.76 (controls 3 of 9).
The variant G56T D107F Y108A showed nd, 4.75, nd (controls 1 of 9).
The variant T28A S55C Y108C showed 2.43, 2.45, 1.99 (mean 2.29; controls 4 of 9).
The variant D30E N54V Y108F showed 3.54, 3.06, nd (mean 3.30; controls 4 of 9).
The variant S52C W53R Y108A showed 6.50, nd, 5.60 (mean 6.05; controls 4 of 9).
The variant D30M Y108W showed 3.77, nd, nd (controls 0 of 9).
The variant W53R R101D Y108R showed 3.61, 5.81, nd (mean 4.71; controls 3 of 9).
The variant I58V D107H Y108W showed 0.76, 0.61, 0.10 (mean 0.49; controls 3 of 9).
The variant Y32A K65M Y108A showed 0.63, 0.72, -0.29 (mean 0.35; controls 2 of 9).
The variant R101Q Y108P showed nd, nd, nd (controls 0 of 9).

The last 3 entries again:

With I58V D107H Y108W the result was 0.76, 0.61, 0.10 (mean 0.49; controls 3 of 9).
With Y32A K65M Y108A the result was 0.63, 0.72, -0.29 (mean 0.35; controls 2 of 9).
With R101Q Y108P the result was nd, nd, nd (controls 0 of 9).